From PubChem BioAssay (EPA / NIEHS)
This is a selection; strong and weak results do not stand in their true shares. Calls of active or inactive are those of the source. How the source made its calls, unless noted: active means hit-call score of the fitted dose curve at least 0.9, where 1 is the maximum; inactive means score below 0.9.

Columns and labels:
[1] = read-out: Plasminogen activator inhibitor-1 (PAI1), SERPINE1 (gene 5054); experiment: BSK_MyoF_PAI1: BioMAP Diversity Plus: MyoF Assay for Plasminogen activator inhibitor-1 (PAI1) Biomarker Activity (AID 2284256); settings: primary human lung fibroblasts
Summary of the method: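 Primary human lung fibroblasts are dosed and incubated 24 h. PAI-1 is then measured by ELISA, while parallel cultures undergo SRB staining for overt cytotoxicity. Increases over DMSO define activity.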

[2] = read-out: Interleukin-8 (IL8), CXCL8 (gene 3576); experiment: BSK_MyoF_IL8: BioMAP Diversity Plus: MyoF Assay for Interleukin-8 (IL8) Biomarker Activity (AID 2284261); settings: primary human lung fibroblasts
Summary of the method: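 IL-8 levels were measured by ELISA in human lung fibroblasts harvested 24 h after compound addition. Responses were analysed as gain of signal over the DMSO baseline.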

[3] = read-out: Decorin, DCN (gene 1634); experiment: BSK_MyoF_Decorin: BioMAP Diversity Plus: MyoF Assay for Decorin Biomarker Activity (AID 2284265); settings: primary human lung fibroblasts
Summary of the method: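 Compound is added to lung fibroblast cultures; cells incubate 24 h; decorin is then measured by ELISA; the response is analysed upward against DMSO controls.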

[4] = BSK_MyoF_SRB: Viability Assessment in the BioMAP Diversity Plus: MyoF Assay (AID 2284267); settings: primary human lung fibroblasts;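 further: total protein by SRB absorbance in parallel cultures as cytotoxicity measure; cells assessed 24 h after compound addition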
Summary of the method: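 Human lung fibroblasts dosed with chemical and assessed 24 h later for overt cytotoxicity in parallel cultures. Total protein quantified by sulforhodamine B staining (0.1% SRB after 10% TCA fixation), read at 560 nm, analysed in positive direction versus DMSO baseline.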

[5] = read-out: Matrix Metallopeptidase 1 (MMP1), MMP1 (gene 4312); experiment: BSK_MyoF_MMP1: BioMAP Diversity Plus: MyoF Assay for Matrix Metallopeptidase 1 (MMP1) Biomarker Activity (AID 2284268); settings: primary human lung fibroblasts
Summary of the method: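 Lung fibroblast cultures were dosed with test chemicals and, after 24 h, MMP1 levels were measured by ELISA; responses were referenced to DMSO and analysed for increases.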

[6] = read-out: TIMP metallopeptidase inhibitor 1 (TIMP1), TIMP1 (gene 7076); experiment: BSK_MyoF_TIMP1: BioMAP Diversity Plus: MyoF Assay for TIMP metallopeptidase inhibitor 1 (TIMP1) Biomarker Activity (AID 2284269); settings: primary human lung fibroblasts
Summary of the method: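 TIMP-1 levels were determined by ELISA in human lung fibroblasts treated for 24 h. DMSO served as negative control and baseline for upward curve fitting.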

[7] = CCTE_Deisenroth_5AR_NBTE_donor: CCTE's 5alpha-reductase NanoBRET Target Engagement Assay […], Deisenroth Lab (AID 2284319); settings: actives raise or lower the signal
Summary of the method: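 In this secondary endpoint, donor luminescence from SRD5A2-NanoLuc in transfected HEK293T flags artifacts. Test chemical (10 nM - 29.9 uM) is present five hours, tracer the last two; mock-tracer wells run plate-matched; data fitted bidirectionally against DMSO.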

[8] = CCTE_Deisenroth_5AR_NBTE_acceptor: CCTE's 5alpha-reductase NanoBRET Target Engagement Assay - Autofluorescence Screen, Deisenroth Lab (AID 2284321); settings: actives raise or lower the signal;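 further: compound fluorescence in the acceptor channel under 460 nm excitation flags autofluorescence artifacts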
Description: CCTE_Deisenroth_5AR NBTE (5alpha-reductase NanoBRET Target Engagement Assay) is a cell-based, single-readout assay that uses HEK293T, a human kidney cell line, with measurements taken at 5 hours after chemical dosing in a 384 well plate. This assay includes a primary and secondary screen as well as an autofluorscence screen.CCTE_Deisenroth_5AR NBTE_acceptor is one of four assay components measured from the CCTE_Deisenroth_5AR NBTE assay. It is designed to make measurements of resonant fluorescence generated by bioluminescent energy transfer to a target fluorophore, as detected by fluorescence intensity emission signals using spectrometry technology.Data from the assay component CCTE_Deisenroth_5AR NBTE_acceptor was analyzed into 1 assay endpoint. This assay endpoint, CCTE_Deisenroth_5AR NBTE_acceptor, was analyzed with bidirectional fitting relative to DMSO as the negative control and baseline of activity. Using a type of inducible reporter, gain or loss-of-signal activity can be used to understand changes in the acceptor fluorescence as related to 5alpha-reductase catalytic function. Furthermore, this assay endpoint can be referred to as a secondary readout, because this assay has produced multiple assay endpoints where this one serves an artifact detection function. […]

[9] = system: SRD5A2 (gene 6716); experiment: CCTE_Deisenroth_5AR_NBTE_ratio: CCTE's 5alpha-reductase NanoBRET Target Engagement Assay - Ratio, Deisenroth Lab (AID 2284322); settings: actives raise or lower the signal
Summary of the method: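 Reverse-transfect HEK293T with pNLF1-C-SRD5A2, express 20 h. Pre-incubate cells with chemical 3 h (8-point series, 10 nM - 29.9 uM, duplicate). Add testosterone tracer, 2 h more. Add substrate/inhibitor, read donor and acceptor emission.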

[10] = system: SERPINA7 (gene 6906); experiment: CCTE_GLTED_hTBG: CCTE's human Thyroxine-binding Globulin (TBG) Inhibition Assay, Great Lakes Toxicology and Ecology Division (GLTED) Lab (AID 2284343; active means hit-call score of the fitted dose curve at least 0.9, where 1 is the maximum;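 further: active chemicals lower fluorescence versus DMSO baseline by displacing probe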)
Summary of the method: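 Cell-free binding assay in which human TBG is incubated with test chemical for 2 hours and displacement of the fluorescent probe ANSA is read at 380 nm excitation/475 nm emission. Activity is fitted against DMSO as the negative control.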

For Cc1ccc([N+](=O)[O-])c([N+](=O)[O-])c1, the AC50 [1] was active: 0.115 µM, the AC50 [2] was active: 11.8 µM and the outcome [3] was “inactive”. The outcome [4] was “inactive”, the AC50 [5] was active: 20 µM and the outcome [6] was “inactive”.

In the case of Cc1cccc([N+](=O)[O-])c1[N+](=O)[O-], the outcome [7] is reported as “inactive”, the outcome [8] is reported as “inactive” and the outcome [9] is reported as “inactive”. The AC50 [10] was active: 35.8 µM.
